From PubChem BioAssay AID1273 (Columbia University Molecular Screening Center, 2008) come the findings set out here.

Only a part is listed here, and it is no random draw. Some results for these compounds are left out of this collection, so the calls shown say nothing about other tests. Active and inactive are the calls of the source.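 How the source made its calls: active means inhibition above the mean plus 3 SD, with well images judged a real hit on visual review (cut at about 60% in these data, passing the limit was not always enough); inconclusive means inhibition over the cutoff but images rejected on review; inactive means inhibition not above the cutoff.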

The nature of this assay: insulin gene promoter suppression in islet cells – imaging, TRM-6 cells (human fetal islet line), eGFP reporter, cell count, primary screen (AID 1273). The settings on record: at 2 µM, stronger effect = higher value, reporter expression induced with tamoxifen.
With `O=C(OC1CN2CCC1CC2)C(CO)(c1ccccc1)c1ccccc1` (stereo not given), the inhibition (in general, the relative decrease from the control value, in per cent) was inactive: -2.78%.
As for `CN(C)c1cccc(C(=O)NCC2(N(C)C)CCCCC2)c1`, the inhibition was inactive: 14.3%.
With `CN(C)C1CCCC1OC(=O)C(O)(c1ccccc1)c1ccccc1` (stereo not given), the inhibition was inactive: 11.8%.
On to `CCN1CCCC(OC(=O)C2(O)c3ccccc3C=Cc3ccccc32)C1` (stereo not given), for which the inhibition is inactive: -115%.
Take `CC(C)N1C(=O)CC2(CCN(CCOC(=O)C(O)(c3ccccc3)c3ccccc3)CC2)C1=O`: the inhibition is inactive: -3.23%.
